# Literature values as cited in article PMC7894237 (Inflammation Research, 2021).
# B1: IFNβ1: interferon beta (protein, UniProt P01574 22-187, looked up)
# Interferon beta: MSYNLLGFLQRSSNFQCQKLLWQLNGRLEYCLKDRMNFDIPEEIKQLQQFQKEDAALTIYEMLQNIFAIFRQDSSSTGWNETIVENLLANVYHQINHLKTVLEEKLEKEDFTRGKLMSSLHLKRYYGRILHYLKAKEYSHCAWTIVRVEILRNFYFINRLTGYLRN
# Tested on: CD73
# Details: intravenous injection
molecule,measurement,value
B1,CD73 cell expression in pulmonary endothelial cells,up-regulate
